Here are results for two substances from patent US6949522B2, “β-2′- or 3′-halonucleosides” (Pharmasset, Inc., priority 2001, dated 2005).

Series [1] has as its system mitochondrial cytochrome C oxidase subunit II (COXII) gene. Format: cell-based, human. The settings on record: HepG2, 10 μM, 7 days; for COXIINrDNA (range) relative to control: COXII DNA normalized to rDNA, 2-ΔΔCt. An excerpt: The Q-RT-PCR technology was also used to evaluate potential mitochondrial γ-DNA polymerase inhibition by the compounds of the present invention in relevant human cells. […] Since active nucleoside compounds in the triphosphate form lack a 3′-OH, thereby stopping virus replication by chain termination, there is a concern that these nucleoside analogues are also substrates for the human DNA polymerase γ, resulting in inhibition of mitochondrial DNA replication and subsequently toxic side effects (11, 19). In an attempt to provide direct quantifiable data on mitochondrial DNA levels intracellular, a Q-PCR technology was designed and relative quantification of COXII DNA levels were calculated using the comparative Ct method. […] Also, in agreement with previous observations, no changes in normalized mitochondrial DNA levels were observed after FIAU and D4T treatment (6, 8, 23).
Low passage number HepG2 cells, obtained from American Tissue Culture Collection (ATCC, Manassas, Va.) were seeded at 5,000 cells/well in collagen-coated 96-well plates. Test compounds were added to the media to obtain a final concentration of 10 μM. On culture day 7, cellular nucleic acids were prepared by using commercially available columns (RNeasy 96 kit, Qiagen). […] The mitochondrial cytochrome C oxidase subunit II (COXII) gene and the β-actin or rRNA gene were amplified from 5 μL with a multiplex Q-PCR protocol using the suitable primers and probes for both target and reference (designed using the Primer Express software, Applied Biosystems); • for COXII. • sense primer 5′-[…]-3′ (Sequence 7); • probe 5′-TET-[…]-TAMRA-3′ (Sequence 8); and • antisense probe 5′-[…]-3′ (Sequence 9); • for exon 3 of β-actin (GenBank E01094): • sense primer 5′-[…]-3′ (Sequence 10); • probe 5′-6FAM-[…]-TAMRA-3′ (Sequnece 11); and • antisense probe 5′-[…]-3′ (Sequence 12).
The rRNA gene primers and probes were purchased from Applied Biosystems. Standard curves using 1-log diluted total HepG2 DNA were linear over more than 5 logs. In addition, efficiencies of target (COXII DNA) and reference (β-actin DNA or rRNA) amplification were approximately equal, because the slope of the ΔCt line (Ct β-actin minus Ct mitochondrial) was less than 0.1 (not shown). Since equal amplification efficiencies were obtained for both genes, the comparative cycle threshold (Ct) method was used to investigate potential inhibition of the mitochondrial DNA polymerase γ. The comparative Ct method uses arithmetic formulas in which the amount of target (COXII gene) is normalized to an endogenous reference (β-actin gene or rRNA gene) and is relative to a calibrator (no drug control at day 7). The arithmetic formula for this approach is given by 2-ΔΔCt (User bulletin # 2, Applied Biosystems).
In order to study the consequences of possible inhibitory effects of these compounds on host DNA polymerases, nuclear and rnitochondrial DNA levels were quantified and compared to no-treatment controls. Cells were incubated for 7 days with 10 μM of each compound, followed by total nucleic acid extractions and multiplex Q-PCR of the rRNA gene and the mitochondrial COXII gene. Nucleic acids from cells exposed to the control compounds were also amplified in multiplex for mitDNA and the β-actin gene. The results are presented in Table 4 using the comparative Ct method.

The next series concerns human PBM cells. Put plainly: Toxicity assay (MTS/MTT dye), human PBM cells. Conditions: read-out: Cytotoxicity PBM IC50, 5 days incubation. How it is done: (§1) After a three day-incubation for HepG2, or 5 days for human PBM cells, cell viability and mitochondrial activity were measured in a colorimetric assay using the MTS- or MTT dye method (Promega, Madison, Wis.).
The next series relates to HepG2. Put plainly: Toxicity assay (MTS/MTT dye), HepG2 cells. The settings on record: read-out: Cytotoxicity HepG2 IC50; HepG2, three day-incubation (Table 3). How it is done: as §1

Some results are limits rather than exact numbers.

Take “β-L-2′,3′-didehydro-2′,3.′-dideoxy-3′-fluoro-5-fluoro cytidine [Compound 23-F]”: in series [1], the “COXIINrDNA (range) relative to control” value was 1.40 (0.93-2.13), the “Average ΔCt ± SD COXII DNA” value is listed as −0.3 ± 0.46 and the “Average ΔΔCt ± SD COXII-rDNA” value is listed as −0.49 ± 0.60. Moreover, the IC50 in the series on human PBM cells is over 100 µM. Further, the 50% inhibitory concentration (IC50) with HepG2 was over 100 µM.

With “β-D-2′,3′-didehydro-2′,3.′-dideoxy-3′-fluoro-5-fluoro cytidine [Compound 10-F]”, in series [1], the “COXIINrDNA (range) relative to control” value was 1.04 (1.34-0.80), the “Average ΔCt ± SD COXII DNA” value is given as −0.49 ± 0.31 and the “Average ΔΔCt ± SD COXII-rDNA” value is −0.05 ± 0.37. Moreover, the IC50 in the series with human PBM cells is over 100 µM. In addition, the 50% inhibitory concentration (IC50) with HepG2 is over 100 µM.
